PubChem BioAssay AID602250 (The Scripps Research Institute Molecular Screening Center, 2012)
The list shows a part of the results, in another mix than the full data. Calls of active or inactive are those of the source.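 The calls were made as follows: active = inhibition above a per-plate cutoff, the plate's mean sample inhibition plus 3 SD (cut at about 24% in these data); inactive = the rest.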

Assay: nonselective inhibitors of ATP calcium response in CHO-K1, primary screen, counter-screen for M1 antagonist project, cell-based, Fluo-8 calcium fluorescence, full deck, 1536-well (AID 602250);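 also: 0% = DMSO plus EC80 ATP and 100% = DMSO alone without ATP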
Details: CHO-K1 parental, ATP-induced calcium, Fluo-8 fluorescence; at 3 µM; active compounds read high

SMILES	inhibition
CCOC(=O)C(CC)C1=NC(C)(C)Cc2ccccc21.O=[N+]([O-])c1cc([N+](=O)[O-])c(O)c([N+](=O)[O-])c1 (stereo not drawn)	inactive: -3.87%
O=[N+]([O-])c1cc([N+](=O)[O-])c(Nc2nnnn2CCO)c([N+](=O)[O-])c1	inactive: -7.14%
CC1=C2N=C(C=C3N=C(C(C)=C4[N-][C@@](C)([C@@H]5N=C1[C@](C)(CCC(=O)NC[C@@H](C)OP(=O)([O-])O[C@H]1[C@@H](O)[C@@H](n6cnc7cc(C)c(C)cc76)O[C@@H]1CO)[C@H]5CC(N)=O)[C@@](C)(CC(N)=O)[C@@H]4CCC(N)=O)[C@@](C)(CC(N)=O)[C@@H]3CCC(N)=O)C(C)(C)[C@@H]2CCC(N)=O.[C-]#N.[Co+3]	inactive: -3.28%
CN(C)C1(CNC(=O)c2ccc(S(C)(=O)=O)cc2)CCCCC1	inactive: -10.3%
COc1ccc(-c2ccccn2)cc1.O=[N+]([O-])c1cc([N+](=O)[O-])c(O)c([N+](=O)[O-])c1	inactive: -19.1%
CP(=O)(Nc1ccc(SC(F)(F)F)cc1)Oc1ccccc1 (stereo not drawn)	inactive: -2.3%
CCCOc1ccc(NP(C)(=O)Oc2ccc(Cl)cc2)cc1 (stereo not drawn)	inactive: -4.6%
CN1CCCCC1COC(=O)C1(O)c2ccccc2CCc2ccccc21 (stereo not drawn)	inactive: -8.13%
COc1ccccc1OP(C)(=O)Nc1c(C)cccc1C (stereo not drawn)	inactive: -16%
CN(Cc1cccnc1)C(=O)COc1ccc(Cl)c(Cl)c1.O=[N+]([O-])c1cc([N+](=O)[O-])c(O)c([N+](=O)[O-])c1	inactive: -7.19%
O=[N+]([O-])c1cc([N+](=O)[O-])c(-n2nnc3ccccc32)c([N+](=O)[O-])c1	inactive: 1.25%
Cc1nc2ccc3ccccc3c2s1.O=[N+]([O-])c1cc([N+](=O)[O-])c(O)c([N+](=O)[O-])c1	inactive: -11.9%
O=[N+]([O-])c1cc([N+](=O)[O-])c(-c2cnn(-c3ccccc3)c2)c([N+](=O)[O-])c1	inactive: 6.14%
CCOC(=O)c1ccc(NP(C)(=O)Oc2cc(C)cc(C)c2)cc1 (stereo not drawn)	inactive: 17.4%
Cc1cc(C)cc(OP(C)(=O)Nc2ccc(C)cc2C)c1 (stereo not drawn)	inactive: -15.6%
COc1ccccc1OP(C)(=O)Nc1cccc(Br)c1 (stereo not drawn)	inactive: -10.2%
COc1cc(C(=O)NCC2(N3CCOCC3)CCCCC2)cc(Cl)c1OC(C)C	inactive: 5.14%
Cc1ccc(C)c(NP(C)(=O)Oc2ccccc2)c1 (stereo not drawn)	inactive: 2.57%
CP(=O)(Nc1cccc(Br)c1)Oc1ccccc1 (stereo not drawn)	inactive: -17.4%
Cc1cc(C)cc(OP(C)(=O)Nc2ccccn2)c1 (stereo not drawn)	inactive: 5.83%
O=C(O)c1cccc(Nc2c([N+](=O)[O-])cc([N+](=O)[O-])cc2[N+](=O)[O-])c1	inactive: -16.4%
CC1=NCCc2c1[nH]c1ccccc21.O=[N+]([O-])c1cc([N+](=O)[O-])c(O)c([N+](=O)[O-])c1	inactive: -12.8%
O=[N+]([O-])c1ccc2c(c1)C=Nc1ccccc1O2	inactive: 15%
Cc1cccc(C)c1OP(C)(N)=O (stereo not drawn)	inactive: -0.64%
CC(C)(C)c1ccc(OP(C)(=O)Nc2ccc(SC(F)(F)F)cc2)cc1 (stereo not drawn)	inactive: -4.2%
COc1cc(C(=O)NCC2(N3CCOCC3)CCCCC2)ccc1OCC(C)C	inactive: -8.18%
O=[N+]([O-])c1cc([N+](=O)[O-])c(Nc2cccnc2)c([N+](=O)[O-])c1	inactive: 3.2%

SMILES	inhibition
Cc1cc(C)cc(OP(C)(N)=O)c1 (stereo not drawn)	inactive: -4.81%
COc1ccc(OP(C)(=O)Nc2cccc(F)c2)cc1 (stereo not drawn)	inactive: 2.87%
COc1ccccc1OP(C)(=O)Nc1cc(Cl)ccc1C (stereo not drawn)	inactive: -6.88%
Cc1ccc(NP(C)(=O)Oc2ccccc2)c(C)c1 (stereo not drawn)	inactive: -16.6%
COc1ccccc1OP(C)(=O)Nc1ccc(C)cc1 (stereo not drawn)	inactive: -8.38%
CCOC(=O)c1ccc(NP(C)(=O)Oc2ccccc2)cc1 (stereo not drawn)	inactive: -6.96%
CCN(CC)CCCOC(=O)C(O)(c1ccccc1)c1ccccc1	inactive: 5.42%
COc1ccccc1-c1ccccn1.O=[N+]([O-])c1cc([N+](=O)[O-])c(O)c([N+](=O)[O-])c1	inactive: -3.61%
Cc1cc(C)cc(OP(C)(=O)Nc2ccc(SC(F)(F)F)cc2)c1 (stereo not drawn)	inactive: 5.61%
CCc1ccc(OP(C)(=O)N2CCN(c3ccc([N+](=O)[O-])cc3)CC2)cc1 (stereo not drawn)	inactive: -7.54%
CP(=O)(NC(=O)Nc1ccccc1)Oc1ccccc1 (stereo not drawn)	inactive: 12.9%
CP(=O)(Oc1ccccc1)OC(c1ccccc1)C(F)(F)F (stereo not drawn)	inactive: 0.3%
CP(=O)(Nc1ccc(SC(F)(F)F)cc1)Oc1ccc(Cl)cc1 (stereo not drawn)	inactive: 0.12%
Cc1ccc(Nc2c([N+](=O)[O-])cc([N+](=O)[O-])cc2[N+](=O)[O-])cc1	inactive: 0.08%
Cc1cccc(C)c1OP(C)(=O)Nc1ccc(SC(F)(F)F)cc1 (stereo not drawn)	inactive: -2.96%
CP(=O)(Nc1ccccn1)Oc1ccc(Cl)cc1 (stereo not drawn)	inactive: -12.2%
O=[N+]([O-])c1cc([N+](=O)[O-])c(O)c([N+](=O)[O-])c1.c1ccc(Oc2ccncc2)cc1	inactive: -4.27%
CCOC(=O)c1ccc(NP(C)(=O)Oc2ccc(OC)cc2)cc1 (stereo not drawn)	inactive: -2.52%
CCOP(C)(=S)SCC(=O)NC(C)C(=O)O (stereo not drawn)	inactive: -9.58%
CCCCOc1ccc(C(=O)NCC2(N3CCCCC3)CCCCC2)cc1OC	inactive: -15.8%
CP(=O)(Nc1ccccc1Br)Oc1ccccc1 (stereo not drawn)	inactive: -7.19%
COc1ccccc1OP(C)(=O)Nc1ccccc1 (stereo not drawn)	inactive: 4.04%
CP(=S)(Nn1cnnc1)Oc1ccccc1 (stereo not drawn)	inactive: -9.36%
CCOC(=O)c1ccc(NP(C)(=O)Oc2ccc(Cl)cc2)cc1 (stereo not drawn)	inactive: -6.47%
CP(=O)(OC12CC3CC(CC(C3)C1)C2)OC12CC3CC(CC(C3)C1)C2	inactive: -0.43%
O=C(OCCCN1CCCC1)C(O)(c1ccccc1)C1CCCCC1 (stereo not drawn)	inactive: -2.38%
